Data on 66 compounds can be found in PubChem BioAssay AID602179 (National Center for Advancing Translational Sciences (NCATS), 2012).

The chains behind the UniProt entries cited, without tags or fusion partners.
UniProt O75874, whole entry, looked up, stated change not applied: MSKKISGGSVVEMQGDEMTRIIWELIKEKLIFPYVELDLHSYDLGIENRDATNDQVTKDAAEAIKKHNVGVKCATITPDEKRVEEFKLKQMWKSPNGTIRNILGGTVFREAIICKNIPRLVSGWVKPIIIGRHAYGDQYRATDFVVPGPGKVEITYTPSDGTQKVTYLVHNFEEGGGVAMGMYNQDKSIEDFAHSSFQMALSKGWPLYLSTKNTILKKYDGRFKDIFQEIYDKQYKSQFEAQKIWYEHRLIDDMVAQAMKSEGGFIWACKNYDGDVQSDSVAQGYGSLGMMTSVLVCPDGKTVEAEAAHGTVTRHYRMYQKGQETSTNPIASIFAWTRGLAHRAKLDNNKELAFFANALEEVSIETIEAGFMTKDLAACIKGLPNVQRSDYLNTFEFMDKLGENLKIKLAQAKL

The structures appear in SMILES notation. Only a part is listed here, and it is no random draw. Activity calls are given as the source filed them. Calls come from the whole dose curve; as a rule, active = well fitted inhibition curve with a large enough effect; inconclusive = small, poorly fitted or top-dose-only effect; inactive = no such curve, though single readings can be large or run the other way.

The assay addresses Isocitrate dehydrogenase [NADP] cytoplasmic (Homo sapiens) (UniProt O75874). Put plainly: qHTS for Inhibitors of mutant isocitrate dehydrogenase 1 (IDH1): qHTS. Note: nearly all actives have a fitted effect of over 65% in size. The conditions noted are these: IDH1-R132H enzyme, NADPH consumption, diaphorase/resazurin fluorescence; at 76.6 µM (top of the series). The text has this:
Unbiased genomic sequencing for 22 glioma genomes found recurrent mutation of isocitrate dehydrogenase 1 (IDH1) on chromosome 2q33-a gene encoding the cytosolic isoform of IIDH1associated with the tricarboxylic acid cycle (TCA) that catalyzes the oxidative decarboxylation of isocitrate, yielding alpha-ketoglutarate and CO2 via NADP+ to NADPH conversion. Subsequent studies confirmed the recurrent IDH mutations in up to 70% of secondary gliomas and in 10% of AML cases. […] This in effect defines IDH1 as an oncogene, and provides an extraordinary opportunity to discover chemical probes against mutant IDH1 that may translate into much needed new therapies for glioma and AML patients. […] NIH Chemical Genomics Center [NCGC] NIH Molecular Libraries Probe Centers Network [MLPCN] MLPCN Grant: DA032129 Assay Submitter (PI): Lenny Dang, Agios Pharmaceuticals
IDH1-R132H (0.5 ug/mL) was dispensed into black, solid-bottom 1536-well plates at 3 uL/well in 20 mM Tris-HCl (pH 7.5), 150 mM NaCl, 10 mM MgCl2, 4 mM beta-ME, and 0.05% protease-free BSA. Then, 23 nL of compounds or DMSO were delivered to each well using a pin tool. A pre-read was run on the Viewlux to identify fluorescent compounds (540 nm excitation filter, 598 nm emission filter, bodipy mirror and 2 second exposure). After 30 minutes of incubation with compound, 3 uL of substrate mix were dispensed (0.016 mM NADPH, 2 mM alpha-KG, 20 mM Tris-HCl (pH 7.5), 150 mM NaCl, 10 mM MgCl2, and 0.05% protease-free BSA). Plates were spun for 1 min at 1000xg and incubated at room temperature for 80 min. Then 1.5 uL of each detection reagent component for the coupling system were added (0.12 mg/mL diaphorase and 0.072 mM resazurin, each in 20 mM Tris-HCl (pH 7.5), 150 mM NaCl, 10 mM MgCl2, and 0.05% protease-free BSA ) The protein, substrate and two detection components were maintained at 4 °C throughout the screen. Additionally, the substrate and resazurin reagents were protected from light. The plates were measured on an Envision plate reader for fluorescence signal using a 540 nm excitation filter and 590 nm emission filter with 10 flashes. 1x and 0x (no-enzyme) IDH1-R132H enzyme control were used to normalize %Activity of identified inhibitors; 0x enzyme values corresponded to 100% Activity (full inhibition), while 1x IDH1-R132H enzyme values were used to normalize 0%Activity (no inhibition). Concentration-response curves were fitted to the signals arising from the resulting fluorescence. The concentration-effect curves were then classified based on curve quality (r2), response magnitude and degree of measured activity, and compounds were subsequently categorized based on their curve class. […] Keywords: isocitrate dehydrogenase, IDH1, IDH1-R132H, MLSMR, MLPCN, NIH Roadmap, qHTS, NCGC
Background: qHTS replaces the single test concentration by a dilution series.
On to `Nc1ccccc1[As](=O)(O)c1ccccc1`, for which the activity change, negative = inhibition is inactive: 9.86%.

Regarding `O=C(O)COc1ccc([As](=O)(O)O)cc1[N+](=O)[O-]`, the activity change, negative = inhibition is inactive: 10.7%.

For `O=P1(Nc2ncccn2)COc2ccccc2OC1`, the activity change, negative = inhibition was inactive: 1.86%.

Consider `O=P1(Nc2ccc(Br)cn2)COc2ccccc2OC1`, for which the activity change, negative = inhibition is inactive: -3.08%.

For the compound `NS(=O)(=O)c1cccc(NC(=O)COC(=O)C(O)(c2ccccc2)c2ccccc2)c1`, the activity change, negative = inhibition is inactive: 5.9%.

Turning to `Cc1ccc(OCC(=O)OC2CN3CCC2CC3)cc1` (stereo unspecified), the activity change, negative = inhibition is inactive: 11.6%.

In the case of `O=[As](O)(c1cccs1)c1cccs1`, the activity change, negative = inhibition was inactive: -0.805%.

On to `Nc1cccc([As](=O)(O)c2ccccc2)c1`, for which the activity change, negative = inhibition was inactive: -7.63%.

Turning to `CC1CCC(C(C)C)C(OP(=O)(Nc2ccccn2)c2ccccc2)C1` (stereo unspecified), the activity change, negative = inhibition was inactive: -3.14%.

Take `Cc1ccc(C(=O)OC2CN3CCC2CC3)cc1` (stereo unspecified): the activity change, negative = inhibition is inactive: 0%.

Take `Cc1nn(-c2ccccc2)c2c1P(=O)(N1CCOCC1)N(C)C(c1ccccc1)=N2` (stereo unspecified): the activity change, negative = inhibition was inactive: 5.18%.

In the case of `CCCC1OP(=O)(Nc2ccccc2)OCC1CC` (stereo unspecified), the activity change, negative = inhibition is inactive: 5.23%.

On to `O=C(/C=C/c1ccccc1)OC1CN2CCC1CC2` (stereo unspecified), for which the activity change, negative = inhibition was inactive: 8.79%.

Regarding `CN(C)C1(CNC(=O)c2ccc(S(C)(=O)=O)cc2)CCCCC1`, the activity change, negative = inhibition was inactive: -0.241%.

For `COc1ccccc1CNC(=O)COC(=O)C(O)(c1ccccc1)c1ccccc1`, the activity change, negative = inhibition was inactive: 7.67%.

As for `CC1(CBr)Cn2c(nc3ccccc3c2=O)S1` (stereo unspecified), the activity change, negative = inhibition was inactive: 4.83%.

In the case of `CC(C)/C=N\N=C(\N)N[N+](=O)[O-]`, the activity change, negative = inhibition is inactive: 7.3%.

Take `CN(C(=O)Cc1ccc(Cl)c(Cl)c1)[C@@H]1CCCC[C@H]1N1CCCC1`: the activity change, negative = inhibition was inactive: 6.28%.

For `CN(CCCl)Cc1cc(Cl)c(NC2=NCCN2)c(Cl)c1`, the activity change, negative = inhibition is inactive: 12.9%.

Turning to `CCOP(=O)(Nc1ccc(C)cn1)OCC`, the activity change, negative = inhibition is inactive: 6.73%.

On to `CCOP(=O)(NC(=NC(C)c1ccccc1)NC(C)c1ccccc1)OCC` (stereo unspecified), for which the activity change, negative = inhibition was inactive: -5.82%.

With `O=P1(Nc2ccccn2)COc2ccccc2OC1`, the activity change, negative = inhibition is inactive: 4.74%.

With `CCC1=CC2Cc3nc4ccc(Cl)cc4c(N)c3C(C1)C2` (stereo unspecified), the activity change, negative = inhibition was inactive: 1.77%.

For the compound `CC(C)(C)C(=O)NC(Sc1ncccn1)C(Cl)(Cl)Cl` (stereo unspecified), the activity change, negative = inhibition is inactive: 3.65%.

On to `O=P1(N(CCCl)CCCl)NCCC(C(F)(F)F)O1` (stereo unspecified), for which the activity change, negative = inhibition is inactive: -1.62%.

`Clc1n[nH]nc1-c1nn[nH][15n]1`: the activity change, negative = inhibition is inactive: 0%.

Turning to `CC(C)C(=O)NC(Sc1ccccc1)C(Cl)(Cl)Cl` (stereo unspecified), the activity change, negative = inhibition was inactive: 5.18%.

As for `O=P(Nc1nccs1)(c1ccccc1)c1ccccc1`, the activity change, negative = inhibition was inactive: -2.85%.

Regarding `c1nnnn1CCn1cnnn1`, the activity change, negative = inhibition is inactive: -2.18%.

As for `O=[N+]([O-])c1ccc(O)c(/C=N/Nc2ccc([N+](=O)[O-])cc2[N+](=O)[O-])c1`, the activity change, negative = inhibition was inactive: 2.05%.

Regarding `CC(=O)NC(SC(=S)N(C)C)C(Cl)(Cl)Cl` (stereo unspecified), the activity change, negative = inhibition was inactive: -0.313%.

With `O=[N+]([O-])c1ncn(CCn2cnc([N+](=O)[O-])n2)n1`, the activity change, negative = inhibition was inactive: 2.06%.

On to `O=[As](O)(c1ccccc1)c1ccc(O)cc1`, for which the activity change, negative = inhibition is inactive: 2.91%.

Consider `Nc1ccc([As](=O)(O)c2ccc([N+](=O)[O-])cc2)cc1`, for which the activity change, negative = inhibition was inactive: 5.08%.

Regarding `C(Cc1nn[nH]n1)Cc1nn[nH]n1`, the activity change, negative = inhibition was inactive: -4.39%.

On to `O=C(OC1CN2CCC1CC2)c1cccc(Cl)c1` (stereo unspecified), for which the activity change, negative = inhibition was inactive: 0%.

For `COc1ccc(N)c([N+](=O)[O-])c1[N+](=O)[O-]`, the activity change, negative = inhibition was inactive: 12.8%.

Take `O=P(Nc1ccccn1)(c1ccc(Br)cc1)c1ccc(Br)cc1`: the activity change, negative = inhibition was inactive: 0%.

In the case of `CN(C)C1(CNC(=O)c2ccc(Cl)c(S(N)(=O)=O)c2)CCCCC1`, the activity change, negative = inhibition was inactive: 3.92%.

`O=P(Nc1nc2ccccc2s1)(c1ccccc1)c1ccccc1`: the activity change, negative = inhibition was inactive: -6.54%.

Turning to `CC(=O)NC(SC(=S)N(CC(C)C)CC(C)C)C(Cl)(Cl)Cl` (stereo unspecified), the activity change, negative = inhibition was inactive: 2.95%.

As for `Cc1ccc(OP(=O)(Nc2ccccn2)Oc2ccc(C)cc2)cc1`, the activity change, negative = inhibition is inactive: -4.75%.

Take `COC(=O)c1cc2c(s1)N=C(c1ccccc1)N(C)P2(=O)N1CCOCC1` (stereo unspecified): the activity change, negative = inhibition is inactive: -0.0845%.

Turning to `CCC(=O)N1C2C3N(C(=O)CC)C1C1N(C(=O)CC)C(C(N1C(=O)CC)N3C(=O)CC)N2C(=O)CC`, the activity change, negative = inhibition was inactive: 0.0387%.

`O=C(OC1CN2CCC1CC2)c1ccccc1` (stereo unspecified): the activity change, negative = inhibition is inactive: 1.39%.

Turning to `CN(C)C(=O)Oc1noc2ccccc12`, the activity change, negative = inhibition is inactive: -3.24%.

In the case of `O=c1c2cc([N+](=O)[O-])ccc2[nH]c2c([N+](=O)[O-])cc([N+](=O)[O-])cc12`, the activity change, negative = inhibition was inactive: 36.3%.

Take `Cc1ccccc1OP(=O)(Nc1ccccn1)Oc1ccccc1C`: the activity change, negative = inhibition was inactive: 2.37%.

In the case of `CC(NC(=O)COC(=O)C(O)(c1ccccc1)c1ccccc1)c1ccccc1` (stereo unspecified), the activity change, negative = inhibition is inactive: 8.89%.

As for `CCNC(=S)/N=C(\N)N[N+](=O)[O-]`, the activity change, negative = inhibition was inactive: 8.8%.

For `O=C(NC1CCS(=O)(=O)C1)NP(=S)(Oc1ccccc1)Oc1ccccc1` (stereo unspecified), the activity change, negative = inhibition is inactive: 2.77%.

For `Cc1ccc(NP(=O)(Oc2cccc(C)c2)Oc2cccc(C)c2)nc1`, the activity change, negative = inhibition was inactive: 4.56%.

With `c1ccc(-c2nn[nH]n2)c(-c2nn[nH]n2)c1`, the activity change, negative = inhibition is inactive: -3.8%.

For `O=P1(N(CCCl)CCCl)OCCC2CCCCN21` (stereo unspecified), the activity change, negative = inhibition was inactive: 2.75%.

As for `COC(=O)C1(C)COP(=O)(NCc2ccccc2)OC1` (stereo unspecified), the activity change, negative = inhibition was inactive: 2.23%.

Turning to `N#C/C(=C\c1ccc(N(CCBr)CCBr)cc1)C(N)=O`, the activity change, negative = inhibition was inactive: 13%.

Consider `CC(=O)c1ccc(N2CC2c2ccncc2)cc1` (stereo unspecified), for which the activity change, negative = inhibition is inactive: -6.54%.

As for `C[C@@H]1C=CCP(=O)(Oc2ccccc2)O1` (stereo partly specified), the activity change, negative = inhibition was inactive: -8.16%.

`C[C@H]1OP(=O)(Oc2ccccc2)C[C@@H]2O[C@@H]21` (stereo partly specified): the activity change, negative = inhibition is inactive: 15.8%.

As to `Cc1ccccc1CN(C)C(=O)COC(=O)C(O)(c1ccccc1)c1ccccc1`, the activity change, negative = inhibition is inactive: 1.48%.

For `CC(=O)Nc1ccc(Oc2c([N+](=O)[O-])cc([N+](=O)[O-])cc2[N+](=O)[O-])cc1`, the activity change, negative = inhibition is inactive: 0.208%.

On to `CC(=O)Nc1ccc([As](=O)(O)O)c(O)c1`, for which the activity change, negative = inhibition is inactive: 3.08%.

For `CCOc1ccc(C2=NCC(CBr)S2)cc1` (stereo unspecified), the activity change, negative = inhibition is inactive: -11.5%.

For `O=P1(Nc2nc3ccc(Cl)cc3s2)COc2ccccc2O1` (stereo unspecified), the activity change, negative = inhibition was inactive: 0.648%.

Turning to `CCc1cc(O)c([N+](=O)[O-])c(C)c1[N+](=O)[O-]`, the activity change, negative = inhibition is inactive: -4.96%.

In the case of `CC(C)(C)C(=O)NC(Sc1ccccc1)C(Cl)(Cl)Cl` (stereo unspecified), the activity change, negative = inhibition was inactive: 0.717%.
